Results: ChEMBL document CHEMBL4007459, “Design of Potent mRNA Decapping Scavenger Enzyme (DcpS) Inhibitors with Improved Physicochemical Properties To Investigate the Mechanism of Therapeutic Benefit in Spinal Muscular Atrophy (SMA)” (J Med Chem, 2017)

Legend:
[1] = Efflux ratio of permeability from basolateral to apical over apical to basolateral side of MDCK cells expressing MDR1; type: ADME, cell-based, Canis lupus familiaris; conditions: dog
[2] = Ratio of fraction unbound in FVB/N mouse plasma to fraction unbound in FVB/N mouse brain; type: ADME

| Compound | Ratio [1] | Ratio [2] |
| --- | --- | --- |
| N#Cc1cc(F)cc(OCc2cccc3nc(N)nc(N)c23)c1 | 2.3 | 2.5 |
| Nc1nc(N)c2c(OCC3CCN(Cc4c(Cl)cccc4Cl)CC3)cccc2n1 | > 2.5 | – |
| Cc1ncccc1OCc1cccc2nc(N)nc(N)c12 | 2.1 | – |
